Earlier results as cited in patent US20220117948A1, “TRITERPENOID ANTIFUNGALS FOR THE TREATMENT OF FUNGAL OSTEO-ARTICULAR INFECTIONS” (Scynexis, Inc., priority 2019, published 2022).
Read-outs that look alike come from different tables or passages of the source.

Columns and labels:
[1] = humans; cited from earlier work
[2] = rabbits; cited from earlier work

For 18F-fluconazole, the “concentration in bone as % of the plasma concentration” value [1] is listed as “approximately 33%” and the “concentration in bone as % of the plasma concentration” value [2] is listed as about 100%.
